Measurements from patent US11732249.

Target: Man-6-P receptor on parental HeLa cells
Assay: cell-based or functional assay

- % uptake by HeLa cells, no Man-6-P; enzyme made with Endogenous PTase: 4.05%
- % uptake by HeLa cells, no Man-6-P; enzyme made with S1-S3: 12.8%
- % uptake by HeLa cells, no Man-6-P; enzyme made with WT α/β: 3.31%
- % uptake by HeLa cells, with 5 mM Man-6-P; enzyme made with Endogenous PTase: 0.22%
- % uptake by HeLa cells, with 5 mM Man-6-P; enzyme made with S1-S3: 2.99%
- % uptake by HeLa cells, with 5 mM Man-6-P; enzyme made with WT α/β: 0.44%
- % uptake, M6PR Dependent; enzyme made with Endogenous PTase: 3.8%
- % uptake, M6PR Dependent; enzyme made with S1-S3: 8.8%
- % uptake, M6PR Dependent; enzyme made with WT α/β: 2.9%
- Fold Increase of M6PR dependent uptake over Endogenous PTase; enzyme made with S1-S3: 2.6 X
- Fold Increase of M6PR dependent uptake over Endogenous PTase; enzyme made with WT α/β: 0.8 X
Substance: acid α-glucosidase (GAA), myc-tagged (from UniProt P10253 57-952) (enzyme)
